Sequences of proteins named here, by UniProt entry; tags and fusion partners are left off. A change or cut given only in a name is not applied to a line headed by its entry.
UniProt P70170: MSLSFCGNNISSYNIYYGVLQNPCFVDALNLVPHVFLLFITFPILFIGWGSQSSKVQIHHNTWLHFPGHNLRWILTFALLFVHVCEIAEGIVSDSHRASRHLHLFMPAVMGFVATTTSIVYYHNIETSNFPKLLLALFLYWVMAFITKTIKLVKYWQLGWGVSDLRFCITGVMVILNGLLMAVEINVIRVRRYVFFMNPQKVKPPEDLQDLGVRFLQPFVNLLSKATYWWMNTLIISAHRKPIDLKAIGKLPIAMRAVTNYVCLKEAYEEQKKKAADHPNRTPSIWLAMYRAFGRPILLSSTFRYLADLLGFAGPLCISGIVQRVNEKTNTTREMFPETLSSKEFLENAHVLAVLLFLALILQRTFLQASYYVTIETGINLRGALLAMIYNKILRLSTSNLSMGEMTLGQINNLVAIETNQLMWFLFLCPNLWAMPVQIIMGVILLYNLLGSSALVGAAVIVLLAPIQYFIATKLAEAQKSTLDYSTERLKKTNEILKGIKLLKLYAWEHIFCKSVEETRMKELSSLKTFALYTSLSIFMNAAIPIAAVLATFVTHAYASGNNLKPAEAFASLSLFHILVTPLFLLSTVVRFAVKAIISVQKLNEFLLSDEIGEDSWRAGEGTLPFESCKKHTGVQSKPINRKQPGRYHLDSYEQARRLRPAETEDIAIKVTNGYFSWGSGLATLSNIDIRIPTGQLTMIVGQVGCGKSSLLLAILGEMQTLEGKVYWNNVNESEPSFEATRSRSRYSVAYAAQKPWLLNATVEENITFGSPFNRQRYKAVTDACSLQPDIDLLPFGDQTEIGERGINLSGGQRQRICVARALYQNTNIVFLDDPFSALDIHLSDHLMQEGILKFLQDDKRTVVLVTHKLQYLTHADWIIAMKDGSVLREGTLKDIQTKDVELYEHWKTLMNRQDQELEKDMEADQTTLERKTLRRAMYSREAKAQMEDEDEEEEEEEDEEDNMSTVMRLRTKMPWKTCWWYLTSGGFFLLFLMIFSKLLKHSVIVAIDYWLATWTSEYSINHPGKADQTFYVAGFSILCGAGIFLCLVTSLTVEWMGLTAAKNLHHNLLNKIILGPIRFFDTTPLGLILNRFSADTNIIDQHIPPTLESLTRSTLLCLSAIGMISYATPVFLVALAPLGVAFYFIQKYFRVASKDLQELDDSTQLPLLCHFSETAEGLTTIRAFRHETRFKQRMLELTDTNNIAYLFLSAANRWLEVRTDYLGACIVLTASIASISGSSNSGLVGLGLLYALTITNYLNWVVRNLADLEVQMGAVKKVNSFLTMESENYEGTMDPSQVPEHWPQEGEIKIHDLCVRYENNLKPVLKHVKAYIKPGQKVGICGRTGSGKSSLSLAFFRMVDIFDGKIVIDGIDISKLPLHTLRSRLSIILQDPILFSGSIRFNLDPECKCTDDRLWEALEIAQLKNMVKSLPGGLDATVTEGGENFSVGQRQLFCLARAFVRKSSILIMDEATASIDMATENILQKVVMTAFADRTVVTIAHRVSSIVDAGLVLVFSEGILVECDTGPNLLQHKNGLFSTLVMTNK
UniProt Q14654, whole entry, stated change not applied: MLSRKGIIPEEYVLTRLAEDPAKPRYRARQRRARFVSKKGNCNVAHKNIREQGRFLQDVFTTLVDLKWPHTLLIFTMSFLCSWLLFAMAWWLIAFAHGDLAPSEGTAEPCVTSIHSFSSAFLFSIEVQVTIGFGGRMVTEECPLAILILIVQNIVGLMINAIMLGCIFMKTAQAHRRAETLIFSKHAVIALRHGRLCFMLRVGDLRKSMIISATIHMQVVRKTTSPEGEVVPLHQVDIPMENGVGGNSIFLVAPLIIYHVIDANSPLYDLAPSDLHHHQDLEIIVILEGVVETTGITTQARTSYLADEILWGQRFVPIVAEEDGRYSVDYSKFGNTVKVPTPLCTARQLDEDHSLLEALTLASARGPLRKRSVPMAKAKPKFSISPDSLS

According to paper PMC2248718 (The Journal of General Physiology, 2008):

Assays:
[1] = target: SUR2A first half deletion (Δ948–954)/Kir6.2 KATP channels expressed in HEK293 cells (UniProt P70170+Q14654, DEL948-954); test: Inside-out patch-clamp of first half ED deletion KATP channels; assay type: cell-based; details: glyburide 10 μM
[2] = target: SUR2A second half deletion (Δ955–962)/Kir6.2 KATP channels expressed in HEK293 cells (UniProt P70170+Q14654, DEL955-962); test: Inside-out patch-clamp of second half ED deletion KATP channels; assay type: cell-based; details: glyburide 10 μM

Glyburide responsiveness compared with wild type [1]: reduced glyburide responsiveness
Glyburide responsiveness compared with wild type [2]: reduced glyburide responsiveness
Compound: COc1ccc(Cl)cc1C(=O)NCCc1ccc(S(=O)(=O)NC(=O)NC2CCCCC2)cc1 [glyburide]
